# Yeast mating assay 2: variants of the scFv Ab-95

Source: Engelhart et al. 2022 (doi:10.1038/s41597-022-01779-4), MIT Lincoln Laboratory and A-Alpha Bio; data file from the FLAb repository.

Binding partner: SARS-CoV-2 spike HR2 peptide, sequence PDVDLGDISGINAS.

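Phage display of a naive human antibody library on the peptide gave the parent. Library AAYL52 holds single substitutions and randomly drawn double and triple substitutions in the CDRs. AlphaSeq pools MATa yeast showing the antibodies with MATalpha yeast showing the peptide. Mating (16 h, 30 °C) was followed by selection of diploids and sequencing of their barcodes. Each replicate has its own calibration line, from reference interactions of the BCL2 family. The assay was run in three technical replicates.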

The variants keep the heavy chain, the linker and the frameworks of Ab-95 (scFv order VH, a 15-residue (Gly4Ser)3 linker, VL).
VH: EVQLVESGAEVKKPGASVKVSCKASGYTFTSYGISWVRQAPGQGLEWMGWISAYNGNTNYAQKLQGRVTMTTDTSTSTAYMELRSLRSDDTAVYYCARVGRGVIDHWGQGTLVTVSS
VL: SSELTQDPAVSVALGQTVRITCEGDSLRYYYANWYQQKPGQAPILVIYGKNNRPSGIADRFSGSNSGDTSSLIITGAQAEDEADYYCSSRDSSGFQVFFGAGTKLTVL

Positions count from residue 1 of the parent VL; L27Q puts Q in place of L.
Numbers give log10(Kd / nM), so 0 is 1 nM and 3 is 1 µM. Smaller is tighter.
An entry "nd" has no value in the source: the pair was not observed among the diploids in that replicate. This suggests poor binding but is not conclusive.
Parent in this assay: reference entry 2.31, copy in this library 2.25.
Empty control strains, which show no peptide, gave a signal in 28% of pairings with library AAYL52; the median was 3.91 and 95% of these signals were weaker than 2.90. No background was subtracted. For each scFv, signals with the empty controls are counted beside the result, with their mean in brackets.

changes,"replicates, log10 nM",empty controls
L27Q+Y30M+S88T,nd 3.60 4.16,2/9 (3.57)
E23F+Y29A+N51C,3.88 3.94 4.35,2/9 (4.12)
R28Q+N51L+S89Y,nd nd nd,0/9
G24S+D25A+R28D,2.62 3.40 2.59,5/9 (4.36)
E23P+A32N+F98K,3.80 4.79 nd,1/9 (4.64)
K50F+G94I+Q96P,nd nd nd,0/9
G24K+L27F+N52H,5.34 2.76 nd,3/9 (3.47)
G24R+S26I+G49A,5.14 nd 4.61,2/9 (4.37)
Y29L+P54M+F98M,4.10 3.88 nd,2/9 (3.96)
Y29H+S88Q+S92M,2.31 2.04 1.85,1/9 (4.54)
N51K+N52H+S93P,nd 3.83 nd,2/9 (3.46)
R28K+Y30E+R53Y,2.82 3.17 3.11,4/9 (4.35)
L27G+N33Q+F98M,nd nd nd,1/9 (4.16)
Y29I+K50S+N51T,nd 3.54 3.84,1/9 (4.13)
P54G,2.25 2.91 2.00,2/9 (5.30)
D25T+N52P+R53I,3.20 5.04 4.33,4/9 (3.99)
S26E+K50S,2.88 2.66 2.99,2/9 (4.09)
Y31E+N51S+F98E,2.06 2.18 2.07,2/9 (3.64)
N51P+R90S+D91S,4.09 4.40 nd,4/9 (3.73)
D25K+Y31E+S55V,1.26 1.20 0.77,6/9 (4.54)
S26D+R90I+G94D,nd nd 3.17,0/9
Y29I+S88V+S89Q,3.31 nd nd,1/9 (5.13)
P54W+S92C+S93D,nd 3.46 2.92,5/9 (4.02)
D25N+D91A+F95A,2.43 2.27 1.86,3/9 (3.68)
E23K+R28F+Q96K,2.76 2.53 4.06,4/9 (4.08)
N51K+G94T+F98A,nd 2.75 nd,0/9
Y30E+Y31F+S89G,2.27 1.85 1.77,7/9 (3.69)
N33V+R53I+F98W,4.13 nd 4.16,3/9 (4.17)
Y31D+R53E+S93M,nd 4.52 nd,1/9 (4.13)
D91E+S92K+V97Y,3.53 nd 2.86,2/9 (4.74)
N33Y+N52Y+S55W,nd nd 4.28,0/9
N33W+N52A+S89R,4.04 4.34 nd,3/9 (3.75)
Y30D+S92F+F98G,2.85 2.81 2.85,4/9 (4.97)
G24T+R28K+K50N,2.00 2.01 1.36,4/9 (4.07)
R90T+S92Q+F98K,3.12 2.25 3.19,4/9 (3.86)
L27G+S55Q+R90E,3.21 nd nd,2/9 (4.03)
E23I+F95L+F98D,3.31 2.73 nd,4/9 (3.94)
R28H+Q96F,2.34 2.85 2.32,5/9 (4.24)
N51C+S55V+S92I,3.35 2.97 nd,2/9 (3.79)
D91H+F95D+Q96E,2.73 2.77 2.38,3/9 (3.72)
L27T+A32S+S55G,2.55 3.90 nd,4/9 (3.95)
L27V+G49L+S89V,nd nd nd,3/9 (4.82)
Y31I+N33R+D91N,3.89 3.85 nd,6/9 (4.28)
K50Q+S89Q+D91K,2.41 2.40 2.37,2/9 (3.77)

A selection of 3 entries from above:

changes,"replicates, log10 nM",empty controls
R90T+S92Q+F98K,3.12 2.25 3.19,4/9 (3.86)
Y30D+S92F+F98G,2.85 2.81 2.85,4/9 (4.97)
L27V+G49L+S89V,nd nd nd,3/9 (4.82)